Experimental data from patent US20260306421A1, “SYSTEMS AND METHODS FOR TRANSDERMAN PATCH DELIVERY” (VITAMAX PATCH WHOLESALER LLC, priority 2022, published 2026).
Marks after values point to notes of the source that are not given here.

Assay: Solubility of zinc chloride and zinc complexes (visual / HPLC)
Type: physicochemical
Description: Accurate measurement of the solubility was then repeated for some of the solvent systems by HPLC. In the HPLC solubility studies, an excess of the test agents was loaded into 2 mL of each test solvent. The solutions were left stirring overnight at 32° C. […] The drug suspensions were then centrifuged, the supernatant diluted, and each sample concentration was measured using HPLC.

Elemental zinc solubility (visual) (solvent PEG400): 21.0* mg/mL | Elemental zinc solubility (visual) (solvent Transcutol): 9.3* mg/mL
SMILES: Cc1occc(=O)c1O.[Zn] [Zinc Maltol, zinc maltol]
